Reference: ChEMBL document CHEMBL1146123, “Kinesin spindle protein (KSP) inhibitors. Part 2: the design, synthesis, and characterization of 2,4-diaryl-2,5-dihydropyrrole inhibitors of the mitotic kinesin KSP” (Bioorg Med Chem Lett, 2006)

Target: T1, Kinesin-like protein KIF11 (Homo sapiens, UniProt P52732)
T1 sequence (P52732 whole entry): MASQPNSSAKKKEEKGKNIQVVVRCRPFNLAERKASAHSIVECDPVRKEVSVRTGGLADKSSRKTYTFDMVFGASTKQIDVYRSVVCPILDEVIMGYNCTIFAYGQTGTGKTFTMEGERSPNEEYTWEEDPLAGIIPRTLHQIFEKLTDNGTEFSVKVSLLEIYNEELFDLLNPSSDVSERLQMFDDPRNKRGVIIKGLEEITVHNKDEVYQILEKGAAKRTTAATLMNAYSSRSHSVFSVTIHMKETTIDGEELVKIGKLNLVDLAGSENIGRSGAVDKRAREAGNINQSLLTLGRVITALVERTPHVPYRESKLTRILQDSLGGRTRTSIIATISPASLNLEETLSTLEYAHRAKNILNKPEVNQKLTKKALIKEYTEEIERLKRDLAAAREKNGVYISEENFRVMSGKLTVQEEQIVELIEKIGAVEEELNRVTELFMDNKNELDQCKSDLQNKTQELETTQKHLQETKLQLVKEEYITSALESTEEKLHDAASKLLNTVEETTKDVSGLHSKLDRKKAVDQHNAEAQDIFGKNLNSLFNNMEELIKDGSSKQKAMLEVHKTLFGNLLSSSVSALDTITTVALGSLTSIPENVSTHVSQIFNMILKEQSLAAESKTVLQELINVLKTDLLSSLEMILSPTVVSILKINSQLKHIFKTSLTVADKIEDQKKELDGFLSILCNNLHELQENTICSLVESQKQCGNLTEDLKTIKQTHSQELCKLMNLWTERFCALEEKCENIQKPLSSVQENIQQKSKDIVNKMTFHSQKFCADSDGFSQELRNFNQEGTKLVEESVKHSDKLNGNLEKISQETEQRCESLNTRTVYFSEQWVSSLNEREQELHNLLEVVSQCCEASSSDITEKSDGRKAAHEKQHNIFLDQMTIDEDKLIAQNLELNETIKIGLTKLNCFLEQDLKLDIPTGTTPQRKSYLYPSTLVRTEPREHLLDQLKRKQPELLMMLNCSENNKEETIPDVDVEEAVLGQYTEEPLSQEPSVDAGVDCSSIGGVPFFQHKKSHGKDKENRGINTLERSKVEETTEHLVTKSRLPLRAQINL
Assay: Inhibition of KSP

In the case of N[C@H](C(=O)N1CC(c2cc(F)ccc2F)=C[C@H]1c1ccccc1)C1CC1, the IC50 is reported as 2 nM.

With CN(C(=O)N1CC(c2cc(F)ccc2F)=C[C@H]1c1ccccc1)C1CCNCC1 the IC50 was 2.6 nM.
